According to ChEMBL document CHEMBL3734651, “Synthesis of dihydropyrimidine α,γ-diketobutanoic acid derivatives targeting HIV integrase” (Eur J Med Chem, 2015):

System: Human immunodeficiency virus 1
Assay: Antiviral activity against HIV1 infected in human peripheral blood mononuclear cells assessed as inhibition of reverse transcriptase activity incubated for 6 days
Assay type: functional, organism-based
Settings: Human immunodeficiency virus 1, 144 h

Cc1cn([C@H]2C[C@H](N=[N+]=[N-])[C@@H](CO)O2)c(=O)[nH]c1=O [ZIDOVUDINE]
EC50: 7.4 nM
